According to US20010051616A1, “METHOD OF LESSENING THE RISK OF VERTEBRAL FRACTURES” (priority 1995, published 2001):

Assays:
[1] = system: vertebral fractures in osteoporotic post-menopausal women; settings: three years; 95% C.I.=[0.28, 0.95]
Protocol: VERTEBRAL FRACTURES—Calculations of prevalent and incident categorical vertebral fractures were performed by comparing each patient's baseline vertebral heights with a reference population (prevalent fracture) and with their follow-up heigiits (incident fractures). Only data from the true baselines were used to determine prevalent fractures. Any vertebral height ratio more than three standard deviations below its corresponding population reference value was defined as a prevalent vertebral fracture. An incident fracture was defined as greater than or equal to a 20% reduction from baseline vertebral height, with an absolute decrease of at least 4 mm in any vertebral height between baseline and follow-up.
Postmenopausal women having a “low” lumbar spinal bone mineral density, defined as either a bone mineral density (BMD) of less than or equal to 0.92 g/cm^2 (+ or −0.02 g/cm^2) as measured by Lunar DPX method, or less than or equal to 0.80 g/cm^2 (+ or −0.02 g/cm^2) as measured by the Hologic QDR method are considered to have osteoporosis. […]
Assessment of vertebral fracture and vertebral deformity (SDI) was based on measurements from lateral spine x-rays, blinded to sequence. […] The process of reading the x-rays involved a computerized entry of measurements taken at each of the vertebrae noted on the x-rays, a process known as digitization. […]

[2] = system: decrease in stature in osteoporotic post-menopausal women; settings: after three years of treatment; all patients; p=0.005 vs placebo
Excerpt: Postmenopausal women having a “low” lumbar spinal bone mineral density, defined as either a bone mineral density (BMD) of less than or equal to 0.92 g/cm^2 (+ or −0.02 g/cm^2) as measured by Lunar DPX method, or less than or equal to 0.80 g/cm^2 (+ or −0.02 g/cm^2) as measured by the Hologic QDR method are considered to have osteoporosis. This definition corresponds to a BMD of approximately two and one-half standard deviations below the mean BMD of mature pre-menopausal Caucasian women in the United States. Patients are otherwise in good health based on medical history, a physical examination and a laboratory screening evaluation.
Data was collected on a total of 881 patients from two study groups (cohorts), following virtually identical protocol design and procedures, except that one study was conducted in the United States, and the other was conducted in Canada, Mexico, Europe, Israel, South America, Australia and New Zealand. Data from the two groups was then pooled. […] Additionally, all patients received dietary evaluation and instruction on calcium intake.

## NCCCC(O)(P(=O)(O)O)P(=O)(O)O [alendronate, 4-amino-1-hydroxy-butylidene-1,1-bisphosphonate]
[1]
  relative risk of incident fracture, alendronate-treated versus placebo treated: 0.52
[2]
  mean change in stature: −3.01 mm
